Test results reported in patent US11246873B2, “Directed differentiation of oligodendrocyte precursor cells to a myelinating cell fate” (The Scripps Research Institute, priority 2011, dated 2022).

Tested on: PLP induced EAE mice
Details: various doses i.p. (FTY720 1, 0.1, 0.01 mg/kg; interferon-β 10,000, 3000, 1000 U per mouse)
Experimental: (A-E) SJL mice were immunized with proteolipid peptide (PLP) and pertussis toxin and monitored daily with scoring on the standard clinical EAE scale (0-5). Compounds were administered daily for the duration of the study in saline at 10 mg/kg via intra-peritoneal injection (0.1 ml), starting on the day of the appearance of clinical EAE symptoms (day 10). […] Mean clinical EAE score and standard error of mean (SEM) are shown for each study group.
FIG. 25. […] EAE was induced in mice using PLP and pertussis toxin. […] Prophylactic dosing is defined as administration of compound commenced on the day of PLP injection. Error bars indicate standard deviation of the mean within each group of 8 mice.
(A-F) EAE was induced in mice using PLP and pertussis toxin. […] Error bars indicate standard deviation of the mean within each group of 8 mice.
(A-F) EAE was induced in mice by injecting PLP in complete Freund's adjuvant (CFA) and pertussis toxin, and the animals were scored daily for clinical severity of disease on a scale of 0-5. […] Error bars indicate standard deviation of the mean within each group of 8-10 mice.
10 week old SJL mice were immunized with PLP emulsion and pertusis toxin to induce EAE. […] The mice were scored daily on a standard EAE scale of 0-5. […]

B1: interferon-β: immunomodulating drug approved for the treatment of MS (protein, UniProt P01574 22-187, looked up)
Interferon beta: MSYNLLGFLQRSSNFQCQKLLWQLNGRLEYCLKDRMNFDIPEEIKQLQQFQKEDAALTIYEMLQNIFAIFRQDSSSTGWNETIVENLLANVYHQINHLKTVLEEKLEKEDFTRGKLMSSLHLKRYYGRILHYLKAKEYSHCAWTIVRVEILRNFYFINRLTGYLRN
- dose dependence of clinical EAE scores: dose dependent activity
